Screening data (PubChem)
SR-BI DiI-HDL act: activators of SR-BI mediated HDL lipid uptake; CHO ldlA[mSR-BI] cells, DiI-HDL uptake fluorescence, 3 h; 100 = double the neutral-control signal; activation, % at 12.5 µM; 320,000 compounds, 0.096% hits; AID 504775;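 active = mean replicate activation of at least 60% and every replicate at or above 60%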
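System: CHO ldlA[mSR-BI] cells / Medium: HEPES-buffered (25 mM, pH 7.4) F12 plus 0.5% BSA / Probe or stimulus: labelled HDL, 10 µg/mL / Doses: single compound concentration, delivered by pin transfer / Schedule: 3 h, 37 °C / Measured by: DiI fluorescence, bottom read / Measure: cell-associated DiI fluorescence as measure of HDL uptake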
INS-1E GSIS act: GLuc luminescence reporter in INS-1E cells, primary screen for activators of glucose-dependent secretion of insulin | 370,000 compounds, 0.61% hits | INS-1E GLuc reporter insulin secretion, 2-3 h | activation, % at 16.6 µM;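 active = lowest replicate activation of at least 40%, so every replicate reaches that level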
UUG fidelity: alters start codon recognition fidelity in yeast. S. cerevisiae UUG-firefly luciferase reporter, luminescence/redox ratio. activity score, % at 18.7 µM. 0.13% of 350,000 active. AID 602363;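 active = replicate mean at a twofold rise or more, about +100% in these data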;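 also: firefly luciferase made from a UUG start codon reports start codon fidelity; reporter light over untreated wells divided by growth signal over untreated wells; some hits fall short of that in this replicate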
SR-BI HDL uptake: inhibitors of mouse SR-BI mediated HDL lipid uptake; AID 488896; ldlA[mSR-BI] CHO cells, DiI-HDL uptake fluorescence, 3 h; inhibition, % at 12.5 µM; 320,000 compounds, 0.96% hits;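 active = mean replicate inhibition of at least 70% and a set share of replicates each scoring 70 or more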
Each line names hits and unclear results; the compound was inactive in the other large screens. Compounds with a hit are over-represented: about 1.3% of the library has one in this group of screens.

COc1cccc(/C=N/NC(=O)CN(C2=NS(=O)(=O)c3ccccc32)c2ccccc2)c1	none (no result: UUG fidelity)
COc1ccc(/C=N/NC(=O)CCn2c3ccccc3c3ccccc32)cc1OC	INS-1E GSIS act 54 (no result: UUG fidelity)
CO[C@H]1CN(C)C(=O)c2ccc(NC(=O)C3CCCCC3)cc2OC[C@H](C)NC[C@H]1C	none (no result: SR-BI DiI-HDL act, SR-BI HDL uptake)
CCC(=O)Nc1ccc2c(c1)C(=O)N(C)[C@H]1CC[C@H](CC(=O)NCC3CC3)O[C@@H]1CO2	none (no result: SR-BI DiI-HDL act, SR-BI HDL uptake)
O=[N+]([O-])c1cccc(COc2ccccc2CN2CCCCC2)c1	INS-1E GSIS act 56
O=[N+]([O-])c1cccc(COc2ccccc2CN2CCOCC2)c1	none
C[C@H](CO)N1C[C@H](C)[C@H](CN(C)C(=O)Nc2ccc(C(F)(F)F)cc2)Oc2c(NC(=O)CCCCCC(=O)Nc3ccccc3N)cccc2C1=O	none (no result: SR-BI DiI-HDL act, UUG fidelity, SR-BI HDL uptake)
O=C(Nc1ccc2c(c1)[C@H]1C[C@@H](CC(=O)N3CCCCC3)O[C@@H](CO)[C@H]1O2)NC1CCCC1	none (no result: SR-BI DiI-HDL act, UUG fidelity, SR-BI HDL uptake)
Cc1nc2c(-c3ccc(F)cc3)cnn2c2c1CCC2	INS-1E GSIS act 44 (no result: UUG fidelity)
COc1ccc(/C=C/C2=CC(C)(C)NC(=S)N2)cc1OC	SR-BI HDL uptake 83 (no result: UUG fidelity)
COc1cccc(/C=C/C2=CC(C)(C)NC(=S)N2)c1	SR-BI HDL uptake 78 (no result: UUG fidelity)
CCOc1ccc(/C=C/C2=CC(C)(C)NC(=S)N2)cc1	none (no result: UUG fidelity)
CCc1nc(N)nc(N)c1-c1ccc(Cl)c([N+](=O)[O-])c1	none (no result: UUG fidelity)
CCc1nc(N)nc(N)c1-c1ccc(Cl)c(N=[N+]=[N-])c1	INS-1E GSIS act 50 (no result: UUG fidelity)
COc1ccccc1C(=O)NC(CCSC)C(=O)NNC(=O)c1ccccc1O (stereo unspecified)	SR-BI HDL uptake 76
COc1ccccc1C(=O)NC(CCSC)C(=O)NNC(=O)c1ccc(F)cc1 (stereo unspecified)	none (no result: INS-1E GSIS act)
Cc1noc(C)c1COc1ccc(C(=O)NNC(=O)c2ccccc2O)cc1	SR-BI HDL uptake 95
Cc1noc(C)c1COc1ccc(C(=O)Nc2nnc(CC(C)C)s2)cc1	SR-BI HDL uptake 82
Cc1noc(C)c1C(=O)Nc1nnc(CC(C)C)s1	none
Cc1noc(C)c1COc1ccc(C(=O)Nc2ccccc2)cc1	none (no result: UUG fidelity)
C[C@H]1CN([C@@H](C)CO)S(=O)(=O)c2ccc(C#CC3CC3)cc2O[C@H]1CN(C)C(=O)C1CCC1	none (no result: SR-BI DiI-HDL act, SR-BI HDL uptake)
COc1ccc(CC(=O)NCCc2ccc(OC)c(OC)c2)cc1	none
COc1ccc(CCNC(=O)c2ccc(CNS(=O)(=O)c3cccc(Cl)c3)cc2)cc1OC	SR-BI HDL uptake 81
COc1ccc(CCNC(=O)c2ccc(CNS(=O)(=O)c3ccc(C(C)(C)C)cc3)cc2)cc1OC	none
COc1ccc(C(=O)Nc2ccc(C(=O)NCCc3ccc(OC)c(OC)c3)cc2)cc1	SR-BI HDL uptake 79
COc1ccc(CCNC(=O)c2ccc(CNS(=O)(=O)c3cc(C)ccc3C)cc2)cc1OC	SR-BI HDL uptake 79
CCCCNC(=O)C1c2ccccc2OCC(=O)N1CCCN1CCOCC1 (stereo unspecified)	none (no result: SR-BI DiI-HDL act, UUG fidelity, SR-BI HDL uptake)
Cc1cccc(C)c1NC(=O)C1c2ccccc2OCC(=O)N1CCCN1CCOCC1 (stereo unspecified)	INS-1E GSIS act 47 (no result: SR-BI DiI-HDL act, UUG fidelity, SR-BI HDL uptake)
COc1cc(Cl)c(C)cc1NC(=O)CNC(=O)Cn1cnc2ccccc2c1=O	SR-BI HDL uptake 85
COc1cc(OC)c(NC(=O)CCNC(=O)Cn2cnc3ccccc3c2=O)cc1Cl	none
COc1cc(Cl)c(C)cc1NC(=O)CSc1cc(Cl)ccc1Cl	SR-BI HDL uptake 82
CC(C)NC(=O)N(C)C[C@@H]1OCc2ccccc2-c2c(n(C)c3ccccc23)C(=O)N([C@H](C)CO)C[C@@H]1C	none (no result: SR-BI DiI-HDL act, SR-BI HDL uptake)
C=CCc1ccccc1Oc1cc(F)nc(N)n1	none
C=CCc1ccccc1Oc1cc(OC)nc(N)n1	INS-1E GSIS act 63
COc1cccc(-c2ccc([C@H]3[C@H]4CN(C(=O)C5CCCCC5)CC(=O)N4[C@H]3CO)cc2)c1	none (no result: SR-BI DiI-HDL act, UUG fidelity, SR-BI HDL uptake)
CC(C)NC(=O)N(C)C[C@@H]1OCCCC[C@@H](C)Oc2ccc(N(C)C)cc2C(=O)N([C@@H](C)CO)C[C@@H]1C	none (no result: SR-BI DiI-HDL act, UUG fidelity, SR-BI HDL uptake)
CN(Cc1ccccc1)C(=S)NC(=O)c1ccc(-c2ccccc2)cc1	INS-1E GSIS act 40
COc1cc(C(=O)NC(=S)N(C)Cc2ccccc2)cc(OC)c1OC	none
CCNC(=O)C[C@@H]1CC[C@H]2[C@@H](COc3ccc(NC(=O)c4cscn4)cc3C(=O)N2C)O1	none (no result: SR-BI DiI-HDL act, SR-BI HDL uptake)
COc1cccc(-c2ccc3c(c2)[C@H]2[C@H](CCN2C(=O)NC2CCCCC2)[C@H](CO)N3C)c1	none (no result: SR-BI DiI-HDL act, UUG fidelity, SR-BI HDL uptake)
COc1ccc(N2C(C)=CS/C2=C(/C#N)c2nnc(N3CCOCC3)n2-c2ccccc2)cc1	none (no result: INS-1E GSIS act)
